In data set [1] the test system is NC(=O)c1ccc[n+]([C@@H]2O[C@H](COP(=O)(O)OP(=O)(O)OC[C@H]3O[C@@H](n4cnc5c(N)ncnc54)[C@H](OP(=O)(O)O)[C@@H]3O)[C@@H](O)[C@H]2O)c1. Description: purified protein. Particulars: 500 mM formate, PBS, 0.05% Triton X-100; Table 1 prints WT as DYH, methods print Gln197.
Data set [2] relates to O=CO. Description: purified protein. Conditions: 2 mM NADP+, PBS, 0.05% Triton X-100.

Consider “Candida FDH (CbFDH) ([Candida] boidinii; D195Q/Q197N/Y196R)”, for which the Km in data set [1] turned out to be 0.18 ± 0.01 mM.
On to “Pseudomonas FDH (PsFDH) (Pseudomonas sp. 101; D222Q/H224N)”, for which the Km in data set [2] turned out to be 63 ± 3 mM.

Source of the values: paper PMC3735542, “Light Driven CO2 Fixation by Using Cyanobacterial Photosystem I and NADPH-Dependent Formate Dehydrogenase” (PLoS ONE, 2013).
